Apparent affinities of Ab-95 variants for a coronavirus HR2 peptide

Antigen: PDVDLGDISGINAS, a 14-residue peptide of the SARS-CoV-2 spike HR2 region.

Parent: Ab-95, a human scFv built as VH, a (GGGGS)3 linker, VL. Only the CDRs of the light chain vary.
VH: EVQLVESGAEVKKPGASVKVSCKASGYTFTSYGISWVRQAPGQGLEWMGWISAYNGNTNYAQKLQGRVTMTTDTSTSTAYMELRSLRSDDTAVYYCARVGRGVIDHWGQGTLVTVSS
VL: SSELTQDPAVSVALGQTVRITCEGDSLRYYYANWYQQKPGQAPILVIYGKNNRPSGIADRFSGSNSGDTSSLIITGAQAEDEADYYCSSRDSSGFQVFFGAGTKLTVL

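Phage display of a naive human antibody library on the peptide gave the parent. The library (AAYL52) carries one to three amino acid substitutions per variant, with no insertions or deletions. The assay is AlphaSeq: two haploid yeast populations carry antibody and antigen on their surface. Binding brings cells together so that they mate, and sequencing counts the barcode pairs among the diploids. Read counts were normalised to the haploid input and turned into Kd by a linear fit to BCL2-family pairs of known affinity, for each replicate. Mating was done three times.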

Variants are written as CDR1, CDR2 and CDR3 of the light chain (limits as in the source). Parent: EGDSLRYYYAN, GKNNRPS, SSRDSSGFQVF. Values are log10 of the apparent Kd in nM; lower means stronger binding. Averages over replicates are reported, and they cover detected replicates only. An entry "nd" has no value in the source: the pair was not observed among the diploids in any replicate. This suggests poor binding but is not conclusive. In this assay the parent's reference entry averaged 2.31; its copy inside this library read 2.25.

CDR-L1,CDR-L2,CDR-L3,"log10 Kd (nM), mean",replicates with signal
EGDSGRYYYAN,GKNNRPS,SSRDSDGFQVC,2.95,3 of 3
EPDSLRYYRAN,GKNNRPS,SSRDSSGRQVF,4.98,1 of 3
EDDSLRYYYAN,GKNNRPS,SSRDSSTFQVF,4.34,3 of 3
EGDSLRYYYAN,GKNNRPS,SSIDYSGFQTF,2.13,2 of 3
EGPSLRYYYAN,LKNNRPS,SSRNSSGFQVF,nd,0 of 3
EGDSLRYYYAN,TKNNRPS,VSRDSSGFQNF,nd,0 of 3
EGDSLRPYYAN,GKNNRPS,SSRDESIFQVF,nd,0 of 3
EGDSLTYYPAN,GKNNRPY,SSRDSSGFQVF,1.70,3 of 3
EGDSLRYYYAM,GKNNRPS,SIRDSSGFQPF,4.46,1 of 3
EGDSLRYYYAN,GKNNRPL,SGRDSSGFQVF,2.08,3 of 3
EGDSLRYYYAN,GKHNRPS,DERDSSGFQVF,3.02,3 of 3
ECDSLRYYYAN,GKNNRPS,SSADSSSFQVF,3.19,3 of 3
EGDSLRYYKAN,PKNNRPS,SSRDSSGCQVF,4.42,3 of 3
EGGSLRYWYAN,GKNNRPS,SSRDSSGFQDF,3.92,2 of 3
EGDVLRYYYAN,GKNNRPS,SSTDSSLFQVF,nd,0 of 3
EGDSLRYYYAN,LKNNRPS,SSCDTSGFQVF,4.63,2 of 3
EGDSLFYYYAN,GKNNRPS,SSTDSSGFQVF,3.87,1 of 3
EGDSLRYYYAQ,GKNNRPS,SSWDSTGFQVF,nd,0 of 3
EGDLLRYYKAN,GKNNRPE,SSRDSSGFQVF,3.71,1 of 3
EGDSLRYYYAP,NKNNRPS,SSRDDSGFQVF,4.09,2 of 3
IGDSLRYYYAN,GKNNRPS,SSRDSSGFDVF,3.84,3 of 3
EGPSLRYYYFN,GKNNRCS,SSRDSSGFQVF,3.85,2 of 3
EGDSLEYYYAN,GKNNRPS,SIRDSSGFLVF,2.50,3 of 3
EGDSYRYYYAN,GKNNRPS,SSRDSSGFQVD,2.89,2 of 3
EGDSLRYYYCN,GKNNAES,SSRDSSGFQVF,3.05,3 of 3
EGDSGRYYYAN,GKNNRPS,SSRESSGFSVF,4.28,3 of 3
EGDSLRYYYAN,GKNNDPS,SPRDSSGFQVA,3.58,1 of 3
EGDSLRYYGAN,GKNKRPS,SSRDSSGYQVF,2.69,3 of 3
SGDSLRYYYAN,GKNNRPS,SSRDSSVAQVF,3.59,3 of 3
EGDSLRYYYAN,GKINRPS,SSRWSSGFQVC,nd,0 of 3
EGDSLRYKYAN,GKNNIPS,SSRDSSGPQVF,4.08,3 of 3
EGDSLRYYYAN,GKNNRPS,SSQDSSMFQCF,nd,0 of 3
FGDSLRYYYAN,GKNNRPS,SSPDSSGFQVF,4.16,3 of 3
EGDSLQYYYYN,TKNNRPS,SSRDSSGFQVF,5.02,1 of 3
EGDSLRSYYAN,PKNNRPS,SSRDSSGFGVF,2.66,3 of 3
EKDSLRYYYAN,GKNFRPS,SSRDSSGFQVF,3.70,3 of 3
EGDSLRYGYDN,GKNNRPS,SSRRSSGFQVF,5.25,1 of 3
EGRSLRKYYAN,GKNNRPS,SNRDSSGFQVF,3.54,2 of 3
EGDSLRYYYAN,GVNNRPL,SSRDSSGFVVF,3.46,3 of 3
EGDSLRQYYAP,GKNNRPS,SSRDSSGFQDF,nd,0 of 3
DGDSLRYYYIN,GKNNRRS,SSRDSSGFQVF,4.97,2 of 3
EGDMLRFYYAN,GKNNRPS,SSRDSSGFQVF,3.46,2 of 3
EGDSLRYYYAN,GVYNRPS,SSRDSSGFQVF,4.41,2 of 3
ELDSLRYYYAN,GKNNDPS,SSRDESGFQVF,2.71,1 of 3
EGDLLRYYYAN,GKNNRPS,SSPDSSGFQVH,nd,0 of 3
EGDSLRYYYAN,LKNWRPS,ISRDSSGFQVF,4.22,1 of 3
QGDKLRYYYAN,GKNNRPY,SSRDSSGFQVF,4.93,1 of 3
EGDSLRYYYAE,GCNNRPS,SSRDSSEFQVF,2.81,3 of 3
EGDSLRYYYDN,GKNNRPS,SSRASSGFQCF,3.67,1 of 3
EGDSLRYYYYV,GKNNRPS,SSRDSSMFQVF,4.74,1 of 3
EGDSLRYYYEN,IKNNRPS,SSRDDSGFQVF,nd,0 of 3
EGDSLRYYQAN,GKNNRPS,SSRDYMGFQVF,1.16,3 of 3
EGDSLRYYYAN,GKNNRPS,SSRDSTLFNVF,2.84,3 of 3
EFTSLRAYYAN,GKNNRPS,SSRDSSGFQVF,2.81,3 of 3
IGDSLRYYYAN,GKNNRAS,SSRDSSGFQVY,1.87,3 of 3
CGDSLRYYYAN,GKNPRPK,SSRDSSGFQVF,4.38,1 of 3
EGDVLRKYYAN,GKNNRRS,SSRDSSGFQVF,3.27,2 of 3
EGDSLDYYYAN,GKNNRPS,SSRDSSIFQVF,3.50,3 of 3
EGDSLRYYYAN,TKNQRPS,SSRDSSGFQVF,3.53,1 of 3
EGDSLRYYYAN,GKNNRPC,SSRDESEFQVF,nd,0 of 3
EGDSLRYYYCN,GKDNRPS,SSRDSSGFQVF,3.53,3 of 3
EGDSLRYYYAN,GKNIRPS,PSRQSSGFQVF,5.05,1 of 3
EGDSLRYYYAN,YKNNRPS,SCRWSSGFQVF,nd,0 of 3
EWDSLRYYYPN,GKNNRPS,SSRDSSGFQVF,2.53,3 of 3
EGDSLRYYKAH,GKNNRPS,SSHDSSGFQVF,5.66,1 of 3
EGDSLLYYFAN,GKNNRPS,SSRWSSGFQVF,2.90,3 of 3
EGDSLRYYYAM,GKNNRMS,SSRDSSGFQVF,3.29,3 of 3
EGDKLSYYYSN,GKNNRPS,SSRDSSGFQVF,4.66,2 of 3
EGDSLRYKYAN,GVNNRPS,SSRISSGFQVF,1.19,3 of 3
TGDSLRAYYAN,GKNLRPS,SSRDSSGFQVF,1.55,3 of 3
EGDSLRYYYRN,GKNNRPS,SSKVSSGFQVF,3.61,2 of 3
EGDSLRYYYVN,GKNNRPS,SVRDASGFQVF,3.40,3 of 3
EGLSLRYYYAN,GKNNRPS,SCRDSSGVQVF,2.69,3 of 3
EGDSLRYYYSN,GKNNRPS,SSRDSMGCQVF,2.60,3 of 3

The first 8 variants above that were never detected:

| CDR-L1 | CDR-L2 | CDR-L3 | log10 Kd (nM), mean | replicates with signal |
|---|---|---|---|---|
| EGPSLRYYYAN | LKNNRPS | SSRNSSGFQVF | nd | 0 of 3 |
| EGDSLRYYYAN | TKNNRPS | VSRDSSGFQNF | nd | 0 of 3 |
| EGDSLRPYYAN | GKNNRPS | SSRDESIFQVF | nd | 0 of 3 |
| EGDVLRYYYAN | GKNNRPS | SSTDSSLFQVF | nd | 0 of 3 |
| EGDSLRYYYAQ | GKNNRPS | SSWDSTGFQVF | nd | 0 of 3 |
| EGDSLRYYYAN | GKINRPS | SSRWSSGFQVC | nd | 0 of 3 |
| EGDSLRYYYAN | GKNNRPS | SSQDSSMFQCF | nd | 0 of 3 |
| EGDSLRQYYAP | GKNNRPS | SSRDSSGFQDF | nd | 0 of 3 |

Empty control strains, which show no peptide, gave a signal in 28% of pairings with library AAYL52; the median was 3.91 and 95% of these signals were weaker than 2.90. No background was subtracted.

Source: Engelhart et al. 2022 (doi:10.1038/s41597-022-01779-4), MIT Lincoln Laboratory and A-Alpha Bio; data file from the FLAb repository.